Measurements as given in article PMC5016662.

Biological target: bovine trypsin (bovine)
Test: not stated; Ki 'recorded for BPTI' against trypsin; no method and no citation given

- Ki: 150 pM
Substance: bovine pancreatic trypsin inhibitor (from UniProt P00974 36-93) (natural protein)
